Assay results published in paper PMC7983974 (Basic & Clinical Pharmacology & Toxicology, 2020).

Target: T1, UGT-mediated glucuronidation of molidustat (M1 formation) (Homo sapiens, UniProt P22309)
T1 sequence (P22309 26-533): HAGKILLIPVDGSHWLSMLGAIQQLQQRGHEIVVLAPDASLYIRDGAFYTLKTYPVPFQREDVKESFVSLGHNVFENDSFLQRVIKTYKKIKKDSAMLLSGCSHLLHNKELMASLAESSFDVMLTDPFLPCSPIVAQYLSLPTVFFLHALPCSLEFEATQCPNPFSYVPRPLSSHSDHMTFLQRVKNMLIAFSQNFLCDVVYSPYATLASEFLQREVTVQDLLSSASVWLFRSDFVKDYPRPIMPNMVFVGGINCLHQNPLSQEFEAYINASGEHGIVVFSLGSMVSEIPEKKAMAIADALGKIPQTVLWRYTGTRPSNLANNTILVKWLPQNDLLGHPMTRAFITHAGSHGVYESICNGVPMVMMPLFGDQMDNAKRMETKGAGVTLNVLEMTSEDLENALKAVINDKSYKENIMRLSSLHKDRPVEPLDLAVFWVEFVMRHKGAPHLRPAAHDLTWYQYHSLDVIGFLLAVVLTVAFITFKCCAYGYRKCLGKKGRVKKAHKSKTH
Test: Inhibition of M1 formation from molidustat in pooled human liver microsomes
Type: in vitro ADME
Settings: probe molidustat 5 µmol/L (formation of M1), IC50, pooled HLMs 0.3 mg/mL, N=1, Table 1

- IC50 at 30 min: 1500 nM
SMILES: CNC(=O)c1ccccc1Sc1ccc2c(/C=C/c3ccccn3)n[nH]c2c1 [Axitinib]
